The source of these data is patent publication US9663522B2, “3-aminocycloalkyl compounds as RORgammaT inhibitors and uses thereof” (Merck Sharp & Dohme Corp., priority 2012, dated 2017).

Chains of the proteins cited; added tags and fusions are not shown. Residues count along the entry.
UniProt P51449, 269-508: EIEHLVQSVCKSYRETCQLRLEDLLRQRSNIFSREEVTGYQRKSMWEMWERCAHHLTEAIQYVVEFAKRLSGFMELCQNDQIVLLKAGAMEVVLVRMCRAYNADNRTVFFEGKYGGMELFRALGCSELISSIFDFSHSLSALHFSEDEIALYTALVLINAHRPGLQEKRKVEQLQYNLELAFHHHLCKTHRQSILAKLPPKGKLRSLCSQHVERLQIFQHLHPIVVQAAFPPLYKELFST

In this assay the target is human RORgammaT-Ligand Binding Domain (LBD) (Homo sapiens (Human), UniProt P51449). The assay can be described thus: biochemical.

SMILES strings stand for the structures.

In general, IC50 refers to the concentration that inhibits the measured activity by half. Molecule `O=C(O)C1CCN(c2nn(C(=O)c3c(Cl)cccc3C(F)(F)F)c3cccnc23)CC1O` (stereo not shown) [Example 1K, 1-(1-(2-chloro-6-(trifluoromethyl)benzoyl)-1H-pyrazolo[4,3-b]pyridin-3-yl)-3-hydroxypiperidine-4-carboxylic acid] displayed a concentration for half-maximal inhibition (IC50) of 0.164 µM.
